Measurements as given in PubChem BioAssay AID488837 (National Center for Advancing Translational Sciences (NCATS), 2010).
Values joined by “and” are separate entries in the source; they are usually repeats but may differ in a detail not shown here. Equal values may be shown once. Only a part is listed here, and it is no random draw. Active and inactive are the calls of the source. Calls follow the shape of the dose curve; as a rule, active = well fitted inhibition curve with a large enough effect; inconclusive = small, poorly fitted or top-dose-only effect, or effect the other way; inactive = flat fitted curve, though single readings scatter.

Chains of the proteins cited; added tags and fusions are not shown. Lines headed by an entry give the natural chain unless they say otherwise; changes in a name come on top.
UniProt O00167: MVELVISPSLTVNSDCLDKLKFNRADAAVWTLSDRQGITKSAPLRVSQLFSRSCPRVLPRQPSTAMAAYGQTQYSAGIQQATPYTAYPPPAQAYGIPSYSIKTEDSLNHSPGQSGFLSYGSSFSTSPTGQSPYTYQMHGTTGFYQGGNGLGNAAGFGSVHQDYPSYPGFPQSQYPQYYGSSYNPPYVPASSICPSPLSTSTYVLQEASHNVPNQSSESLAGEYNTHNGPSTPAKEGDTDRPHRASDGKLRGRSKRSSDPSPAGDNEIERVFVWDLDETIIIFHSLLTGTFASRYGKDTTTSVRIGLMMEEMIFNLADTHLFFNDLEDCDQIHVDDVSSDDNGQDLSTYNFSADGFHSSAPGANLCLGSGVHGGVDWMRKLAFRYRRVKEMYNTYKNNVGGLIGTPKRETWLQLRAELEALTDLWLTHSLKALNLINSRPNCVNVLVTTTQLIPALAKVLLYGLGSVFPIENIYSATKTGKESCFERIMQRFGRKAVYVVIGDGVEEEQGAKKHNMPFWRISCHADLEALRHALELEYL

target: Protein phosphatase EYA2 (Homo sapiens) (UniProt O00167); assay: qHTS Assay for Inhibitors of the Phosphatase Activity of Eya2; conditions: recombinant Eya2, OMFP fluorescence dephosphorylation (OMFP is methylfluorescein phosphate); at 76.9 µM (top of the series) unless noted
Description: The Eya family of proteins are essential co-activators of the Six1 transcription factor. Six1 is a developmental gene that is abnormally re-expressed in a large percentage of breast cancers. This over-expression plays a causal role in the initiation and metastatic development of breast cancers. The Eya family of proteins was also found to contain a unique HAD phosphatase domain with protein tyrosine phosphatase activity which can potentially play a role in Six1-mediated breast tumorigenesis. […] We have developed and optimized a 1536 well fluorescence-based HTS assay targeting the phosphatase activity of Eya2. Inhibitors found against Eya2 could serve as potential therapeutic tools to inhibit Six1-mediated breast tumorigenesis and to increase the efficiency of radiation and certain chemo therapy. These inhibitors could also be used as chemical probes to study the function of Eya2's phosphatase activity and its role in Six1-mediated breast tumorigenesis.
The Eya2 enzyme was kindly provided by the laboratory of Dr. Rui Zhao. The 3-O-methyl-fluorescein phosphate (OMFP) substrate and all buffer reagents were purchased from Sigma Aldrich. qHTS Assay Setup: 1. Buffer- 50 mM HEPES pH 7.5, 50 mM NaCl, 5 uM MgCl2, 0.05% BSA, 1 mM DTT. 2. OMFP Stock- 10 mM solution prepared in 100% DMSO and stored in single use aliquots at -20C. Assay Procedure- 1. Dispense 1.5 ul per well of Eya2 at 0.2 uM in black medium binding 1536 well Greiner plate 2. Transfer 23 nl of compound and control compound (EGTA) to plate 3. Incubate at ambient for 10 minutes 4. Dispense 1.5 ul per well of OMFP at 50 uM 5. Incubate at ambient for 10 minutes 6. Read on ViewLux using Excitation = 485 nm, Emission = 525 nm
% is scaled to controls: 0 for no effect and ±100 for the full control effect.

Compound | activity, negative = inhibition
CCC(C)N(CC(C)C)C(=S)SC(NC(C)=O)C(Cl)(Cl)Cl (stereo not drawn) | inactive: -9.54%
CN(CCCl)Cc1cc(Cl)c(NC2=NCCN2)c(Cl)c1 | inactive: 1.87%
CCOP(=O)(Nc1ccc(C)cn1)OCC | inactive: 7.94%
CCC1=CC2Cc3nc4ccc(Cl)cc4c(N)c3C(C1)C2 (stereo not drawn) | inactive: 6.14%
O=P1(Nc2ccccn2)COc2ccccc2OC1 | inactive: 1.42%
CCOP(=O)(NC(=NC(C)c1ccccc1)NC(C)c1ccccc1)OCC (stereo not drawn) | inactive: 16.1%
Clc1n[nH]nc1-c1nn[nH][15n]1 | inactive: 11.7%
CC(C)(C)C(=O)NC(Sc1ncccn1)C(Cl)(Cl)Cl (stereo not drawn) | inactive: 5.3%
COc1ccccc1CNC(=O)COC(=O)C(O)(c1ccccc1)c1ccccc1 | inactive: -14.6%
O=[As](O)(c1ccccc1Br)c1ccccc1Br | inactive: 0.565%
CN(C(=O)Cc1ccc(Cl)c(Cl)c1)[C@@H]1CCCC[C@H]1N1CCCC1 | inactive: -5.37%
CC(C)/C=N\N=C(\N)N[N+](=O)[O-] | inactive: 0.231%
Cc1nn(-c2ccccc2)c2c1P(=O)(N1CCOCC1)N(C)C(c1ccccc1)=N2 (stereo not drawn) | inactive: -31.1%
Cc1ccc(C(=O)OC2CN3CCC2CC3)cc1 (stereo not drawn) | inactive: -6.69%
CC1CCC(C(C)C)C(OP(=O)(Nc2ccccn2)c2ccccc2)C1 (stereo not drawn) | inactive: -0.711%
O=C(/C=C/c1ccccc1)OC1CN2CCC1CC2 (stereo not drawn) | inactive: -1.86%
CN(C)C1(CNC(=O)c2ccc(S(C)(=O)=O)cc2)CCCCC1 | inactive: -3.74%
O=P1(Nc2ncccn2)COc2ccccc2OC1 | inactive: 30.4%
NS(=O)(=O)c1cccc(NC(=O)COC(=O)C(O)(c2ccccc2)c2ccccc2)c1 | inactive: -1.85%
O=P1(Nc2ccc(Br)cn2)COc2ccccc2OC1 | inactive: 7.39%
Cc1ccc(OCC(=O)OC2CN3CCC2CC3)cc1 (stereo not drawn) | inactive: -5.6%

Compound | activity, negative = inhibition
O=[As](O)(c1cccs1)c1cccs1 | inactive: 2.54%
Nc1cccc([As](=O)(O)c2ccccc2)c1 | inactive: -0.0303%
CS(=O)(=O)c1cc([N+](=O)[O-])c2no[n+]([O-])c2c1 | inactive: 8.86%
CCOP1(=S)c2c(C)nn(CCC#N)c2N=C(c2ccccc2F)N1C (stereo not drawn) | inactive: 12.8%
O=P(Nc1nccs1)(c1ccccc1)c1nc2ccccc2s1 (stereo not drawn) | inactive: -1.18%
O=P(Nc1nccs1)(Oc1ccccc1)Oc1ccccc1 | inactive: 7.38%
O=C(O)COc1ccc([As](=O)(O)O)cc1[N+](=O)[O-] | inactive: -26.3%
Nc1ccccc1[As](=O)(O)c1ccccc1 | inactive: -27%
NC(=O)Nc1ccc([As](=O)(O)O)cc1 | inactive: 4.76%
O=[N+]([O-])c1ccc2c(c1)nnn2O | inactive: 11.5%
N#CCCN(C(=O)COC(=O)C(O)(c1ccccc1)c1ccccc1)c1ccc(F)cc1 | inactive: 20.2%
CN(C(=O)Cc1ccccc1)[C@@H]1CC[C@]2(CCCO2)C[C@H]1N1CCCC1 | inactive: 8.09% and inactive: -7.42%
CCOP1(=S)c2c(C)nn(CCC#N)c2N=C(c2ccc(F)cc2)N1C (stereo not drawn) | inactive: -6.99% [at 15.4 µM]
COc1cc(C(=O)NCC2(N3CCOCC3)CCCCC2)cc(Cl)c1OC(C)C | inactive: 3.64%
O=[As](O)(O)c1cccnc1 | inactive: -15.6%
CS(=O)(=O)c1ccc(Cl)c(NC(=O)COC(=O)C(O)(c2ccccc2)c2ccccc2)c1 | inactive: -2.12%
CN(C(=O)Cc1ccc(Cl)c(Cl)c1)[C@@H]1CC[C@]2(CCCO2)C[C@H]1N1CCCC1 | inactive: 2.27%
O=[As](O)(c1cccc(O)c1)c1cccc(O)c1 | inactive: 9.48%
CCCOP(=S)(Nc1nc(N)cc(=O)[nH]1)OCCC | inactive: 25.7%
Cc1ccc(NCCc2c([N+](=O)[O-])cc([N+](=O)[O-])cc2[N+](=O)[O-])cc1 | inactive: 2.02%
COc1cc(C2NCCC3(OCCO3)C2(C)C)cc(OC)c1OC (stereo not drawn) | inactive: -5.71%

Compound | activity, negative = inhibition
CCOP(=O)(Nc1cccc2ccccc12)OCC | inactive: -1.91%
O=P1(Nc2nc3ccc(Cl)cc3s2)COc2ccccc2O1 (stereo not drawn) | inactive: -2.61%
CCOc1ccc(C2=NCC(CBr)S2)cc1 (stereo not drawn) | inactive: 1.36%
CC(C)(C)C(=O)NC(Sc1ccccc1)C(Cl)(Cl)Cl (stereo not drawn) | inactive: 3.82%
CC(=O)c1ccc(N2CC2c2ccncc2)cc1 (stereo not drawn) | inactive: 0.743%
Cc1ccccc1CN(C)C(=O)COC(=O)C(O)(c1ccccc1)c1ccccc1 | inactive: -2.46%
C[C@@H]1C=CCP(=O)(Oc2ccccc2)O1 (stereo partly drawn) | inactive: -11.4%
C[C@H]1OP(=O)(Oc2ccccc2)C[C@@H]2O[C@@H]21 (stereo partly drawn) | inactive: -14%
CC(=O)Nc1ccc(Oc2c([N+](=O)[O-])cc([N+](=O)[O-])cc2[N+](=O)[O-])cc1 | inactive: 9.4%
O=C(NC1CCS(=O)(=O)C1)NP(=S)(Oc1ccccc1)Oc1ccccc1 (stereo not drawn) | inactive: -7.52%
CCNC(=S)/N=C(\N)N[N+](=O)[O-] | inactive: 1.66%
c1ccc(-c2nn[nH]n2)c(-c2nn[nH]n2)c1 | inactive: 13.5%
Cc1ccc(NP(=O)(Oc2cccc(C)c2)Oc2cccc(C)c2)nc1 | inactive: 5.38%
CCOC(=O)NC(Sc1ccccc1)C(Cl)(Cl)Cl (stereo not drawn) | inactive: 6.96%
COC(=O)c1cc2c(s1)N=C(c1ccccc1)N(C)P2(=O)N1CCOCC1 (stereo not drawn) | inactive: 6.09%
CC(=O)NC(SC(=S)N(CC(C)C)CC(C)C)C(Cl)(Cl)Cl (stereo not drawn) | inactive: 3.48%
Cc1ccc(OP(=O)(Nc2ccccn2)Oc2ccc(C)cc2)cc1 | inactive: -7.29%
O=C(OC1CN2CCC1CC2)c1ccccc1 (stereo not drawn) | inactive: -5.64%
CN(C(=O)Cc1ccc(Cl)c(Cl)c1)[C@@H]1CCCC[C@@H]1N1CCCC1 | inactive: -1.97%
CCC(=O)N1C2C3N(C(=O)CC)C1C1N(C(=O)CC)C(C(N1C(=O)CC)N3C(=O)CC)N2C(=O)CC | inactive: 6.73%
CC(NC(=O)COC(=O)C(O)(c1ccccc1)c1ccccc1)c1ccccc1 (stereo not drawn) | inactive: 0.101%
